{"source": "patent US20260249027A1", "about": "“METERED DOSE INHALERS AND HIGH-DOSE SUSPENSIONS” (Kindeva Drug Delivery L.P., priority 2023, published 2026)", "test": "Through life dose consistency of sodium cromoglycate pMDI suspensions (USP <601>, apparatus A)", "type": "physicochemical", "details": "nominal ex-valve 0.5 mg/act; HFA-152a", "protocol": "In the following examples, dose consistency was determined by in vitro measurement of single actuation dose content at start, middle and end of pMDI unit life in line with U.S. Pharmacopeia (USP)<601>, using a flow rate of 28.3 L/min and apparatus A. Aerodynamic particle size distribution of the pMDI suspension aerosols was measured at start of unit life in line with U.S. Pharmacopeia (USP)<601> using a Next Generation impactor without pre-separator (apparatus 6) and a flow rate of 30 L/min.\nSuspensions of micronized sodium cromoglycate in HFA-152a or HFO-1234ze(E) were prepared. A first set of suspensions included no ethanol. A second set of suspensions included 2% ethanol by weight. Each suspension included an amount of sodium cromoglycate to provide a nominal delivered dose (ex-valve) of 0.5 mg/actuation (10.0 mg/mL) or 1.0 mg/actuation (20.0 mg/mL). Two further suspensions including no ethanol were prepared which included an amount of sodium cromoglycate to provide a nominal delivered dose (ex-valve) of 2.0 mg/actuation (40.0 mg/mL). […]\nThe through-life (TL) dose consistency of each pMDI unit was determined by measuring the mean ex-actuator delivered dose in micrograms of sodium cromoglycate (N=3) at the start of life (SoL), middle of life (MOL) and end of life (EoL) of the unit.", "data": [{"compound": "O=C(O)c1cc(=O)c2c(OCC(O)COc3cccc4oc(C(=O)O)cc(=O)c34)cccc2o1", "note": "[sodium cromoglycate]", "values": [{"measurement": "EoL mean delivered dose", "value": 307.9, "unit": "μg/act"}]}]}
